This passage reports EC50 and IC90 results from patent US20240228488A1 (TAKEDA PHARMACEUTICAL COMPANY LIMITED, priority 2021, published 2024).

Protein sequences, listed by entry. Tags and fused reporters are not part of them. Residues count along the entry.
UniProt P03952, 391-638 limits assumed: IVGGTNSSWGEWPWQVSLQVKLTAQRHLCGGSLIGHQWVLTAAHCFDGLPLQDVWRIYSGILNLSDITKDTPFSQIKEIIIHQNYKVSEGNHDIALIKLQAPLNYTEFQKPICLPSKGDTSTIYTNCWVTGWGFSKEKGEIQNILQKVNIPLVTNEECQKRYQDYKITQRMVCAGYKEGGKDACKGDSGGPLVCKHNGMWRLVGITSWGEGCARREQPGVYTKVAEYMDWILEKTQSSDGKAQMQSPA
UniProt P03952, 20-390 partner limits assumed: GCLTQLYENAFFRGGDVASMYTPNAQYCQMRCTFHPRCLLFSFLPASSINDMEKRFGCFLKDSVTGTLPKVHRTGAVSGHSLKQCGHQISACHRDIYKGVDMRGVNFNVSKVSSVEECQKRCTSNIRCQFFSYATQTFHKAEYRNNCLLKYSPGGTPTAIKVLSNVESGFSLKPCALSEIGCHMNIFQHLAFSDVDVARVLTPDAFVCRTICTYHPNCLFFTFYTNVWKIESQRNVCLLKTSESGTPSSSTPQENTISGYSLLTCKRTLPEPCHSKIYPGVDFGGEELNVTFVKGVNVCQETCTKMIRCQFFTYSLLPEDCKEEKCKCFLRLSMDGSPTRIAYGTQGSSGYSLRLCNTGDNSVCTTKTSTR

The target in experiment [1] is human activated kallikrein enzyme (Homo sapiens, UniProt P03952). The experiment can be described thus: Plasma kallikrein inhibition, fluorogenic PFR-AMC substrate, 500 pM activated kallikrein format.
The target of the next experiment is plasma kallikrein (Homo sapiens, UniProt P03952). The experiment can be described thus: Neat human plasma assay, FXIIa contact pathway-activated, PFR-AMC substrate. The note with it: read-out: Human Plasma Assay: IC90, citrated human plasma 78% final, 10 nM human FXIIa, 100 μM PFR-AMC.
The mark [2] stands for this setting: read-out: Primary Dose Response Assay: Average EC50, 300 uM PFR-AMC, 30 min preincubation, 10 min reaction.

Like-named read-outs stand apart in the source and are kept apart here.

The EC50 is the concentration at which the effect is half-maximal. As to `CN1C(=O)CN(c2cc(C3CC3)cn3cc(CNc4cc(NC(=O)C5C(c6cccc(Cl)c6)C5(F)F)ncn4)nc23)C1=O` (single isomer, unassigned) [544], the EC50 in experiment [1] (setting [2]) is 100 to 1000 nM. A word on the IC90: it is the point of the concentration-response curve where the effect stands at 90%. On to `Cc1csc(C2CC2C(=O)Nc2cc(NCc3cn4cc(C5CC5)cc(N5CC(=O)N(C)C5=O)c4n3)ncn2)n1` (single isomer, unassigned) [447], for which, in experiment [1] (setting [2]), the EC50 was < 1 nM. In addition, the IC90 at plasma kallikrein was < 400 nM. For `N#Cc1ccc(Cl)cc1C1CC1C(=O)Nc1cc(NCc2cn3cc(C4CC4)cc(N4CCCC4=O)c3n2)ncn1` (single isomer, unassigned), the EC50 in experiment [1] (setting [2]) is < 1 nM. Same read-out and setting: with `Cc1ccnc(C2(F)CC2C(=O)Nc2cc(N[C@H](C)c3cn4cc(C5CC5)cc(N5CC(=O)N(C)C5=O)c4n3)nc(C)n2)n1` (single isomer, unassigned) [548] the figure was 100 to 1000 nM; with `O=C(Nc1cc(NCc2cn3cc(C4CC4)cc(N4C(=O)C5CCC4C5)c3n2)ccn1)[C@H]1C[C@@H]1c1cccc(Cl)c1` (single isomer, unassigned) [94], < 1 nM. Regarding `O=C(Nc1cc(NCc2cn3cc(C4CC4)cc(N4CC5CC5C4=O)c3n2)ncn1)[C@H]1C[C@@H]1c1cccc(Cl)c1` (single isomer, unassigned), in experiment [1] (setting [2]), the EC50 was in the range of 1 to 10 nM. Moreover, the IC90 on plasma kallikrein was 1500 to 10000 nM. Regarding `Cc1ccnc([C@H]2C[C@@H]2C(=O)Nc2cc(OC(C)c3cn4cc(C5CC5)cc(N5CC(=O)N(C)C5=O)c4n3)cnn2)n1` (some centres unmarked), in experiment [1] (setting [2]), the concentration giving a half-maximal response (EC50) was < 1 nM. On plasma kallikrein, the IC90 lay in the range of 400 to 1500 nM. On the same counts, the results for `CN1C(=O)CN(c2cc(C3CC3)cn3cc(CNc4cc(NC(=O)C5CC5(F)c5cccc(Cl)c5)ncn4)nc23)C1=O` (single isomer, unassigned) [333] are < 1 nM and 400 to 1500 nM. With `N#Cc1ccc(Cl)cc1C1CC1C(=O)Nc1cc(NCc2cn3cc(C4CC4)cc(N4CCCC4=O)c3n2)ccn1` (single isomer, unassigned), the EC50 in experiment [1] (setting [2]) was 10 to 100 nM; in experiment [1] (read-out: Primary Dose Response Assay: Average EC50, 300 uM PFR-AMC, 30 min preincubation, 10 min reaction, tested form: formate), < 1 nM. The 90% effect concentration (IC90) at plasma kallikrein (tested form: formate) is < 400 nM.

On to `O=C(Nc1cc(NCc2cn3cc(C4CC4)cc(N4C(=O)C5CCC4C5)c3n2)ccn1)[C@H]1C[C@@H]1c1cccc(Cl)c1` (single isomer, unassigned) [93], for which the concentration for a half-maximal effect (EC50) in experiment [1] (setting [2]) was in the range of 1 to 10 nM. Regarding `O=C(Nc1cc(NCc2cn3cc(C4CC4)cc(N4CCOCC4=O)c3n2)ncn1)C1CC1c1cccc(Cl)c1` (single isomer, unassigned) [75], the EC50 in experiment [1] (setting [2]) is < 1 nM. Still for that read-out and setting: with `Cc1ccnc(C2(F)CC2C(=O)Nc2cc(N[C@H](C)c3cn4cc(C5CC5)cc(N5CC(=O)N(C)C5=O)c4n3)nc(C)n2)n1` (single isomer, unassigned) [547] the figure was < 1 nM. `Cc1ccnc(C2CC2C(=O)Nc2cc(NCc3cn4cc(C5CC5)cc(N5CC6CC6C5=O)c4n3)ncn2)n1` (single isomer, unassigned) [321]: in experiment [1] (setting [2]), the EC50 was in the range of 100 to 1000 nM.

With `CN1C(=O)CN(c2cc(C3CC3)cn3cc(CNc4cc(NC(=O)C5C(c6cccc(Cl)c6)C5(F)F)ncn4)nc23)C1=O` (single isomer, unassigned) [545], in experiment [1] (setting [2]), the EC50 was < 1 nM. In addition, the IC90 at plasma kallikrein fell in the range of 1500 to 10000 nM. In the case of `Cc1ccnc(C2CC2C(=O)Nc2cc(NCc3cn4cc(C5CC5)cc(N5CC6CC6C5=O)c4n3)ncn2)n1` (single isomer, unassigned) [320], the EC50 in experiment [1] (setting [2]) was in the range of 100 to 1000 nM. `Cc1ccnc(C2CC2C(=O)Nc2cc(NCc3cn4cc(C5CC5)cc(N5CC6CC6C5=O)c4n3)ncn2)n1` (single isomer, unassigned) [318]: the EC50 in experiment [1] (setting [2]) was < 1 nM. Further, on plasma kallikrein, the IC90 lay in the range of 400 to 1500 nM. As to `CN1C(=O)CN(c2cc(C3CC3)cn3cc(CNc4cc(NC(=O)C5CC5(F)c5cccc(Cl)c5)ncn4)nc23)C1=O` (racemic) [331], the EC50 in experiment [1] (setting [2]) was in the range of 1 to 10 nM. On to `Cc1ccnc(C2CC2C(=O)Nc2cc(NCc3cn4cc(C5CC5)cc(N5CC6CC6C5=O)c4n3)ncn2)n1` (single isomer, unassigned) [319], for which the EC50 in experiment [1] (setting [2]) is < 1 nM. Besides, the IC90 on plasma kallikrein lay within 400 to 1500 nM. With `Cc1ccnc([C@H]2C[C@@H]2C(=O)Nc2cc(N[C@H](C)c3cn4cc(C5CC5)cc(N5CC6CC6C5=O)c4n3)ncn2)n1` (single isomer, unassigned), the EC50 in experiment [1] (setting [2]) was < 1 nM. The same measure, in the same setting: with `CN1C(=O)CN(c2cc(C3CC3)cn3cc(CNc4cc(NC(=O)C5CC5(F)c5cccc(Cl)c5)ncn4)nc23)C1=O` (single isomer, unassigned) [332] the figure was 100 to 1000 nM. Consider `O=C(Nc1cc(NCc2cn3cc(C4CC4)cc(N4CC5CC5C4=O)c3n2)ccn1)[C@H]1C[C@@H]1c1cccc(Cl)c1` (single isomer, unassigned), for which the EC50 in experiment [1] (setting [2]) was < 1 nM. For the same compound, the IC90 at plasma kallikrein is 400 to 1500 nM. Taken in the same sequence, the figures for `CC1CCC(=O)N1c1cc(C2CC2)cn2cc(CNc3ccnc(NC(=O)[C@H]4C[C@@H]4c4cccc(Cl)c4)c3)nc12` (single isomer, unassigned) were < 1 nM and 400 to 1500 nM. Take `Cc1ccnc([C@@H]2C[C@H]2C(=O)Nc2cc(NC(C)c3cn4cc(C5CC5)cc(N5CC(=O)N(C)C5=O)c4n3)ncn2)n1` (single isomer, unassigned) [450]: in experiment [1] (setting [2]), the EC50 lay in the range of 100 to 1000 nM.

For `Cc1csc(C2CC2C(=O)Nc2cc(NCc3cn4cc(C5CC5)cc(N5CC(=O)N(C)C5=O)c4n3)ncn2)n1` (single isomer, unassigned) [448], the EC50 in experiment [1] (setting [2]) was 100 to 1000 nM. On the same count and under the same terms, with `Cc1ccnc([C@@H]2C[C@H]2C(=O)Nc2cc(NC(C)c3cn4cc(C5CC5)cc(N5CC(=O)N(C)C5=O)c4n3)ncn2)n1` (single isomer, unassigned) [453] the figure was > 6000 nM; with `CN1C(=O)CN(c2cc(C3CC3)cn3cc(CNc4cc(NC(=O)C5CC5(F)c5cccc(Cl)c5)ncn4)nc23)C1=O` (racemic) [330], 100 to 1000 nM; with `O=C(Nc1cc(NCc2cn3cc(C4CC4)cc(N4CCOCC4=O)c3n2)ncn1)C1CC1c1cccc(Cl)c1` (single isomer, unassigned) [76], 100 to 1000 nM.
